# Results taken from patent publication US20230220081A1 (published 2023).
# B1: 15593 (PD-1) (receptor)
# chain: LDSPDRPWNPPTFSPALLVVTEGDNATFTCSFSNTSESFVLNWYRMSPSNQTDKLAAFPEDRSQPGQDCRFRVTQLPNGRDFHMSVVRARRNDSGTYLCGAISLAPKAQIKESLRAELRVTERRAEVPTAHPSPSPRPAGQFQ
# Target: 21480B
# Experiment: Octet
binder,measurement,value
B1,Kd,1.91 nM
